Experimental data from PubChem BioAssay.
The list shows a part of the results, in another mix than the full data. Some of the results follow. Calls of active or inactive are those of the source.

By UniProt entry, the sequences of proteins in these tests, tags left out. Where a name states a change or a piece, a line headed by the entry shows the natural chain unless it says otherwise.
UniProt P04839: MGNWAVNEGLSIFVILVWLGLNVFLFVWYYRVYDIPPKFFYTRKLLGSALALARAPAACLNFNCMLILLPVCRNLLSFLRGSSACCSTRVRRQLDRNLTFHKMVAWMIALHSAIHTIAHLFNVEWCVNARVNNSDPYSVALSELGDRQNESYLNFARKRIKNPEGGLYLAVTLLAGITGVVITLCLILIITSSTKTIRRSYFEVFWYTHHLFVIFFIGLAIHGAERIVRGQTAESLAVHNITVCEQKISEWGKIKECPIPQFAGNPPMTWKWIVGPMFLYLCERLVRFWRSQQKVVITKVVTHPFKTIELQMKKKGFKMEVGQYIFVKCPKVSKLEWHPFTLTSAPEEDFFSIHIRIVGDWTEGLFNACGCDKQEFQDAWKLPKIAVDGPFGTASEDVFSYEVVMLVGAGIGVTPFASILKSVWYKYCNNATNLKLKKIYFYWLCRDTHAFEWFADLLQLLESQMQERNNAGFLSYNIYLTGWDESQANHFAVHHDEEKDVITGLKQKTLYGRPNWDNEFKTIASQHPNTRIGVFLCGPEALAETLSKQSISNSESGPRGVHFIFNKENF
UniProt Q9NPH5: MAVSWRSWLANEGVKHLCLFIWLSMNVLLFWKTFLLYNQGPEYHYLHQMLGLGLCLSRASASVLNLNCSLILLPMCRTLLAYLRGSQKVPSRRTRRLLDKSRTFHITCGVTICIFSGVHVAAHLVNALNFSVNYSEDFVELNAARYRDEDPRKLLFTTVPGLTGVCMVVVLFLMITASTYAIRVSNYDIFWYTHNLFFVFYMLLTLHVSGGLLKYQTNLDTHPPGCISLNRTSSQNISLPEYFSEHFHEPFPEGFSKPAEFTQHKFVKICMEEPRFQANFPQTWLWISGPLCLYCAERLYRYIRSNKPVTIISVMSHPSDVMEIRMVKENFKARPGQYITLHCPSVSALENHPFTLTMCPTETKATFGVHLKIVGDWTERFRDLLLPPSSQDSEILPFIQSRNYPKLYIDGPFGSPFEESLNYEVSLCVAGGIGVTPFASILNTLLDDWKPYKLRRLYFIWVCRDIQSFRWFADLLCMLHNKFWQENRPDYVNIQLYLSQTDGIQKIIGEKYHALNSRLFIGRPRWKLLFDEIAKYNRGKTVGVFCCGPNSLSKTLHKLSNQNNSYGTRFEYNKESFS
UniProt Q96PH1: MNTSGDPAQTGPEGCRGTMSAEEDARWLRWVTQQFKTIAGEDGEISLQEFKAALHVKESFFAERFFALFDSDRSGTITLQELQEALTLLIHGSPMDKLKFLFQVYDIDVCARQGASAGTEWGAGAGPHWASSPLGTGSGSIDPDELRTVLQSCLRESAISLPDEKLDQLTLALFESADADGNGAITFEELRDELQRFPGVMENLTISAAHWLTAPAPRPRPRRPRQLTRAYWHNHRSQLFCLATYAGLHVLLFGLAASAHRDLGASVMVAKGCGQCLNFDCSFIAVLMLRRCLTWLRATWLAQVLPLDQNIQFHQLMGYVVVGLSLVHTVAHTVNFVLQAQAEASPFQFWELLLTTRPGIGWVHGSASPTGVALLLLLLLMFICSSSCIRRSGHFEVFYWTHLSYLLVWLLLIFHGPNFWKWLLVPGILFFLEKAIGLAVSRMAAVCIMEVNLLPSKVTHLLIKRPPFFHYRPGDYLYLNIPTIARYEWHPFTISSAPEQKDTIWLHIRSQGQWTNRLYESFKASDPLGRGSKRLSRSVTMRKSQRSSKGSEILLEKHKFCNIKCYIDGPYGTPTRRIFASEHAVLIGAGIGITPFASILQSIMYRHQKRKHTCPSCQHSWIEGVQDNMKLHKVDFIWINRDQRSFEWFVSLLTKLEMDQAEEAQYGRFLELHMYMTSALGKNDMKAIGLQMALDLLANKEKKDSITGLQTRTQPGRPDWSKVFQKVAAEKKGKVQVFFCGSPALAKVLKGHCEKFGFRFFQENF

Tests used:
[1] = small-molecule binders of probe aLefty1, primary screen, biochemical, small-molecule microarray, 635/667 nm fluorescence (AID 1153); conditions: higher = more signal;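 note: score merges spot fluorescence with signal-to-noise ratio from the scanned slide images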
[2] = osmotic lysis modulators in infected erythrocytes, primary screen, PSAC antagonist project, cell-based, P. falciparum Indochina, OD700, 3 h (AID 1156); conditions: higher = more signal, called active from +8 up or from −8 down
[3] = PSAC antagonists in infected red cells, primary screen, cell-based, P. falciparum Indochina, OD700, 18 h (AID 1157); conditions: P. falciparum Indochina infected erythrocytes, osmotic lysis OD700, 18 h; higher = more signal, called active from +8 up or from −8 down
[4] = modulators of S6 phosphorylation in cells, primary screen, cell-based, A549, cytoblot, luminescence, serum-stimulated (AID 1158); conditions: A549 phospho-S6 cytoblot, 5 h, higher = more signal;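 note: serum-stimulated A549 lung adenocarcinoma cells; signal is phosphorylated S6 detected by cytoblot immunostaining with HRP secondary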
[5] = target: NADPH oxidase 2 (Homo sapiens) (UniProt P04839); experiment: NOX2-dependent H2O2 signal modulators, primary screen, NOX inhibitor project, cell-based, HEK293-NOX2, PMA-stimulated, Amplex Red fluorescence (AID 1159); conditions: 45 min, higher = more signal, called active from +8 up or from −8 down; note: test concentration not given here
[6] = target: NADPH oxidase 4 (Homo sapiens) (UniProt Q9NPH5); experiment: NOX4-dependent H2O2 signal modulators, primary screen, NOX inhibitor project, cell-based, HEK293-NOX4, tetracycline-induced, Amplex Red fluorescence (AID 1160); conditions: 45 min, higher = more signal, called active from +8 up or from −8 down
[7] = target: NADPH oxidase 5 (Homo sapiens) (UniProt Q96PH1); experiment: NOX5-dependent H2O2 signal modulators, primary screen, NOX inhibitor project, cell-based, HEK293-NOX5, Amplex Red fluorescence (AID 1161); conditions: HEK293-NOX5, ionomycin, 45 min, higher = more signal
[8] = A549 cell viability effects, profiling panel, calcein-AM fluorescence, 48 h, basal (AID 1162); conditions: higher = more signal; note: test concentration not given here
[9] = adipocyte viability effects, profiling panel, cell-based, 3T3-L1 adipocytes, calcein-AM fluorescence, 48 h, basal (AID 1163); conditions: 3T3-L1 adipocytes viability, higher = more signal; note: test concentration not given here
[10] = HepG2 cell viability effects, profiling panel, calcein-AM fluorescence, 48 h, basal (AID 1164); conditions: higher = more signal; note: test concentration not given here

Compound	composite z-score [1]	z-score [2]	z-score [3]	z-score [4]	z-score [5]	z-score [6]	z-score [7]	z-score [8]	z-score [9]	z-score [10]
COP(=O)(/N=C1/CC(CCCO)=CC(C2CC2)N1C)OC (stereo not given)	-0.509	inactive: -0.451	inactive: -2.51	2.98	inactive: -0.919	inactive: -0.495	-0.0774	1.1	1.15	0.994
O=P(/N=C1/CC(CCCO)=CC(c2cccs2)N1Cc1cccc(OC(F)(F)F)c1)(Oc1ccccc1)Oc1ccccc1 (stereo not given)	0.388	inactive: 0.751	inactive: 1.19	-0.12	inactive: -0.325	inactive: -0.455	0.711	0.61	0.366	0.544
O=P(/N=C1/CC(c2ccc(CO)cc2)=CC(C2CC2)N1Cc1sc2ccccc2c1Cl)(Oc1ccccc1)Oc1ccccc1 (stereo not given)	0.302	inactive: 1.39	inactive: 1.02	0.181	inactive: -1.32	inactive: -0.578	-0.241	-1.54	1.37	-0.263
CN1/C(=N\P(=O)(Oc2ccccc2)Oc2ccccc2)CC(c2ccc(CO)cc2)=CC1C1CC1 (stereo not given)	-0.137	inactive: -0.798	inactive: -1.66	1.28	inactive: -1.65	inactive: -0.564	-1.19	1.6	0.104	0.417
O=P(/N=C1/CC(CCCO)=CC(c2cccs2)N1Cc1cc2c(cc1Br)OCO2)(Oc1ccccc1)Oc1ccccc1 (stereo not given)	0.304	inactive: 0.881	inactive: 0.941	-0.352	inactive: 0.708	inactive: -0.377	0.241	-0.389	0.0465	0.433
COP(=O)(/N=C1/CC(c2ccc(CO)cc2)=CC(C2CC2)N1Cc1sc2ccccc2c1Cl)OC (stereo not given)	0.607	inactive: 0.469	inactive: -0.551	3.31	inactive: 0.289	inactive: 0.782	0.537	1.4	2.12	0.369
COP(=O)(/N=C1/CC(c2ccc(CO)cc2)=CC(C2CC2)N1C)OC (stereo not given)	0.0678	inactive: 0.328	inactive: -1.9	1.87	inactive: -2.93	inactive: -0.608	0.0683	2.99	1.48	1.65
CN1/C(=N\P(=O)(Oc2ccccc2)Oc2ccccc2)CC(CCCO)=CC1C1CC1 (stereo not given)	0.159	inactive: 0.252	inactive: -2.47	1.77	inactive: 0.0706	inactive: -0.19	0.575	0.615	0.0619	0.0325
O=P(/N=C1/CC(CCCO)=CC(C2CC2)N1Cc1cccc(OC(F)(F)F)c1)(Oc1ccccc1)Oc1ccccc1 (stereo not given)	-0.0464	inactive: 1.21	inactive: 0.675	0.216	inactive: -1.12	inactive: -0.938	-1.13	0.14	0.701	-0.336
COP(=O)(/N=C1/CC(c2ccc(CO)cc2)=CC(C2CC2)N1Cc1cc2c(cc1Br)OCO2)OC (stereo not given)	0.77	inactive: 0.681	inactive: -0.85	1.69	inactive: 1.4	inactive: 0.601	0.513	1.18	1.25	1.34
COP(=O)(/N=C1/CC(CCCO)=CC(c2ccc(CN3CCCC3)cc2)N1Cc1cccc(OC(F)(F)F)c1)OC (stereo not given)	0.547	inactive: 1.43	inactive: -0.799	2.13	inactive: -3.08	inactive: -0.684	-0.507	1.47	0.613	1.35
CC1C=C(CCCO)C/C(=N/P(=O)(Oc2ccccc2)Oc2ccccc2)N1Cc1cccc(OC(F)(F)F)c1 (stereo not given)	0.0451	inactive: 0.941	inactive: 0.454	1.11	inactive: 0.141	inactive: -0.0903	0.093	-0.758	0.541	-0.77
CN1/C(=N\P(=O)(Oc2ccccc2)Oc2ccccc2)CC(CCCO)=CC1c1ccc(CN2CCCC2)cc1 (stereo not given)	-0.0362	inactive: 0.16	inactive: -0.017	0.249	inactive: -1.92	inactive: -1.86	-0.425	-0.3	0.026	-1.1
COP(=O)(/N=C1/CC(CCCO)=CC(c2ccc(CN3CCCC3)cc2)N1Cc1cc2c(cc1Br)OCO2)OC (stereo not given)	0.614	inactive: 0.375	inactive: -1.46	0.529	inactive: 0.877	inactive: 1.78	1.09	1.23	0.968	0.607
COP(=O)(/N=C1/CC(CCCO)=CC(c2ccc(CN3CCCC3)cc2)N1C)OC (stereo not given)	0.318	inactive: 0.369	inactive: -1.69	1.19	inactive: 0.0697	inactive: 0.354	0.502	0.217	0.62	0.85
CN1/C(=N\P(=O)(Oc2ccccc2)Oc2ccccc2)CC(CCCO)=CC1c1cccs1 (stereo not given)	0.051	inactive: 1.74	inactive: 0.355	0.764	inactive: -1.08	inactive: -0.234	-0.236	-0.53	1.08	-0.35
COP(=O)(/N=C1/CC(CCCO)=CC(c2ccc(CN3CCCC3)cc2)N1Cc1sc2ccccc2c1Cl)OC (stereo not given)	0.956	inactive: 1.53	inactive: 0.723	-0.46	inactive: 0.236	inactive: 0.949	-0.255	1.62	-0.0171	1.29
CN1/C(=N\P(=O)(Oc2ccccc2)Oc2ccccc2)CC(c2ccc(CO)cc2)=CC1c1cccs1 (stereo not given)	0.271	inactive: -0.348	inactive: -1.83	1.24	inactive: 0.175	inactive: -1.02	1.23	0.343	0.399	-0.394
O=P(/N=C1/CC(c2ccc(CO)cc2)=CC(C2CC2)N1Cc1cc2c(cc1Br)OCO2)(Oc1ccccc1)Oc1ccccc1 (stereo not given)	0.0654	inactive: -0.768	inactive: 0.672	0.0935	inactive: -0.0846	inactive: 0.371	0.798	-0.634	0.972	-0.554
O=P(/N=C1/CC(CCCO)=CC(c2ccc(CN3CCCC3)cc2)N1Cc1cc2c(cc1Br)OCO2)(Oc1ccccc1)Oc1ccccc1 (stereo not given)	0.0627	inactive: 0.889	inactive: 0.302	0.291	inactive: 0.123	inactive: 0.606	0.495	-0.721	0.378	-0.978
O=P(/N=C1/CC(c2ccc(CO)cc2)=CC(c2cccs2)N1Cc1cccc(OC(F)(F)F)c1)(Oc1ccccc1)Oc1ccccc1 (stereo not given)	0.167	inactive: 0.328	inactive: 0.917	0.423	inactive: -0.692	inactive: 0.215	0.63	-0.766	1.52	-1.85
O=P(/N=C1/CC(CCCO)=CC(C2CC2)N1Cc1sc2ccccc2c1Cl)(Oc1ccccc1)Oc1ccccc1 (stereo not given)	0.0547	inactive: 0.294	inactive: 0.77	-0.126	inactive: -0.0663	inactive: -0.111	1.74	-1.19	0.109	1.01
COP(=O)(/N=C1/CC(CCCO)=CC(C)N1Cc1cccc(OC(F)(F)F)c1)OC (stereo not given)	0.546	inactive: -0.301	inactive: -1.54	0.692	inactive: 1.71	inactive: 1.57	1.39	1.34	0.305	1.1
COP(=O)(/N=C1/CC(c2ccc(CO)cc2)=CC(c2cccs2)N1C)OC (stereo not given)	0.568	inactive: 0.104	inactive: 0.355	0.682	inactive: 0.0747	inactive: -0.362	-0.0548	0.721	0.609	1.28
O=P(/N=C1/CC(CCCO)=CC(c2ccc(CN3CCCC3)cc2)N1Cc1sc2ccccc2c1Cl)(Oc1ccccc1)Oc1ccccc1 (stereo not given)	0.0794	inactive: -0.136	inactive: 0.503	0.374	inactive: -3.61	inactive: -0.644	-0.756	-1.07	0.0291	-1.01
COP(=O)(/N=C1/CC(CCCO)=CC(c2cccs2)N1C)OC (stereo not given)	0.0842	inactive: -0.724	inactive: -1.85	0.287	inactive: 0.577	inactive: 0.893	1.81	1.6	-0.461	0.22
COP(=O)(/N=C1/CC(CCCO)=CC(C2CC2)N1Cc1sc2ccccc2c1Cl)OC (stereo not given)	1.72	inactive: 1.11	inactive: 1.17	0.312	inactive: 1.32	inactive: 0.706	0.34	0.894	0.549	1.56
O=P(/N=C1/CC(CCCO)=CC(C2CC2)N1Cc1cc2c(cc1Br)OCO2)(Oc1ccccc1)Oc1ccccc1 (stereo not given)	0.345	inactive: 0.368	inactive: 0.626	0.118	inactive: -0.312	inactive: -0.406	-0.393	-0.525	0.171	-1.17
COP(=O)(/N=C1/CC(CCCO)=CC(C2CC2)N1Cc1cc2c(cc1Br)OCO2)OC (stereo not given)	0.415	inactive: 0.779	inactive: -0.485	2.8	inactive: -1.16	inactive: -0.223	-0.529	1.79	1.3	0.933
COP(=O)(/N=C1/CC(CCCO)=CC(C2CC2)N1Cc1cccc(OC(F)(F)F)c1)OC (stereo not given)	0.167	inactive: -0.38	inactive: -1.12	3.92	inactive: -1.15	inactive: -0.552	-0.148	1.67	1.02	1.56
